Results on two molecules are retold here after ChEMBL document CHEMBL2203264, “Optimization of imidazo[4,5-b]pyridine-based kinase inhibitors: identification of a dual FLT3/Aurora kinase inhibitor as an orally bioavailable preclinical development candidate for the treatment of acute myeloid leukemia” (J Med Chem, 2012).

Protein sequences, listed by entry. Tags and fused reporters are not part of them.
UniProt P11712, whole entry: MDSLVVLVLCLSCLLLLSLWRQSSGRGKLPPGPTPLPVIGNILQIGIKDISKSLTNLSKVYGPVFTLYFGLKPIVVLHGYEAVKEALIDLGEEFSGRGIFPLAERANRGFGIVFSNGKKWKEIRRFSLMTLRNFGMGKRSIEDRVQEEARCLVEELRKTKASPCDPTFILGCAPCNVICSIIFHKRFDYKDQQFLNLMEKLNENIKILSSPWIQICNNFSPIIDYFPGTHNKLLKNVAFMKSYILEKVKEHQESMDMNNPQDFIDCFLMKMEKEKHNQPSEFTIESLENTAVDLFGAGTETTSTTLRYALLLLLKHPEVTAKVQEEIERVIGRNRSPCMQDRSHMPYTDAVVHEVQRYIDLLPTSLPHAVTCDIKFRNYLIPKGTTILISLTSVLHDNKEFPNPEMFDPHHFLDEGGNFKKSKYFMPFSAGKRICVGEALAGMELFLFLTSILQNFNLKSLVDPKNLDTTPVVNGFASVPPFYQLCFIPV
UniProt P33261, whole entry: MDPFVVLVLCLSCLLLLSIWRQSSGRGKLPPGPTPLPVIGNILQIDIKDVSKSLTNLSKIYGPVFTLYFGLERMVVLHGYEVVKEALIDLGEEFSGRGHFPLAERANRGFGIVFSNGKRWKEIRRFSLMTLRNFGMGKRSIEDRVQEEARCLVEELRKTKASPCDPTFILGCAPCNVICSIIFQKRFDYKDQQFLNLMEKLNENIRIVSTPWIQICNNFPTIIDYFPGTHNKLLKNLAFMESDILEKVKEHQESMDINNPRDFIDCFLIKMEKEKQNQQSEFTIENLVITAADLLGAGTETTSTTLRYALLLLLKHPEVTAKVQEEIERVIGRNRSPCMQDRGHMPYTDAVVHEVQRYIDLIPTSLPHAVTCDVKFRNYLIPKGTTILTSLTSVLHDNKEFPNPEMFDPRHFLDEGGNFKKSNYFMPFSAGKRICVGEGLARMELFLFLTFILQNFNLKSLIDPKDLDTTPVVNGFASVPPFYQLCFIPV

Assay [1] can be described thus: Growth inhibition of human MOLM11 cells. The format is functional.
Assay [2] has as its target Cytochrome P450 2C9 (Homo sapiens, UniProt P11712). Nature of the assay: Inhibition of human liver microsome CYP2C9 by LC-MS-MS analysis. Format: ADME.
Assay [3] has as its target Cytochrome P450 2C19 (Homo sapiens, UniProt P33261).
Assay [4] relates to SW-620. The assay can be described thus: cells. Particulars: Homo sapiens, SW-620, 72 h.

A value given as a limit tells only on which side of the number the result lay.

With `Cc1nn(C)cc1-c1nc2c(N3CCN(Cc4ccc(Cl)cc4)CC3)c(Cl)cnc2[nH]1` [MOBINITINIB], the GI50 (commonly the concentration that inhibits growth by half) in assay [1] amounted to 291 nM. Moreover, the IC50 in assay [2] and in assay [3] was above 10000 nM throughout.

`Cc1cc(CN2CCN(c3c(Cl)cnc4[nH]c(-c5cn(C)nc5C5CC5)nc34)CC2)no1`: in assay [4], the concentration for 50% growth inhibition (GI50) is 1350 nM.
